The target of experiment [1] is FLT3-ITD-D835V (Homo sapiens (Human), UniProt P36888, D835V/INS600HVDFREYEYD). In words: pFLT3 MSD assay, Ba/F3 FLT3-ITD-D835V. The format is cell-based. The note with it: Ba/F3 FLT3-ITD-D835V cells, 2 hours, read-out: BaF3-FLT3-ITD-D835V pFlt3 IC50.
For experiment [2], the target named is FLT3-ITD-F691L (Homo sapiens (Human), UniProt P36888, F691L/INS600HVDFREYEYD). The experiment can be described thus: pFLT3 MSD assay, Ba/F3 FLT3-ITD-F691L. The format is cell-based. As to conditions: Ba/F3 FLT3-ITD-F691L cells, 2 hours, read-out: BaF3-FLT3-ITD-F691L pFlt3 IC50.

Consider 26 molecules from patent US9725465B2, “Biaryl acetamide compounds and methods of use thereof” (Ambit Biosciences Corporation, priority 2013, dated 2017).

Structures can show the parent of a compound that is named as a salt.

On to `COc1cc2ncc(-c3ccc(CC(=O)Nc4cc(C5(C(F)(F)F)CC5)on4)cc3F)nc2cc1OC` [Example 42, 2-(4-(6,7-dimethoxyquinoxalin-2-yl)-3-fluorophenyl)-N-(5-(1-(trifluoromethyl)cyclopropyl)isoxazol-3-yl)acetamide], for which the IC50 in experiment [1] and in experiment [2] was under 10 nM in each case.
Turning to `CC(C)(c1cc(NC(=O)Cc2ccc(-c3cnc4[nH]ncc4c3)cc2)no1)C(F)(F)F` [Example 44, 2-(4-(1H-pyrazolo[3,4-b]pyridin-5-yl)phenyl)-N-(5-(1,1,1-trifluoro-2-methylpropan-2-yl)isoxazol-3-yl)acetamide], the IC50 in experiment [1] and in experiment [2] was under 10 nM in each case.
On to `CN(C)C(=O)c1n[nH]c2ncc(-c3ccc(CC(=O)Nc4cc(C(C)(C)C)on4)cc3)cc12` [Example 45, 5-(4-(2-((5-(tert-butyl)isoxazol-3-yl)amino)-2-oxoethyl)phenyl)-N,N-dimethyl-1H-pyrazolo[3,4-b]pyridine-3-carboxamide], for which the IC50 (in general, the concentration at which inhibition is half-maximal) in experiment [1] was 10 to 20 nM; in experiment [2] it was under 10 nM.
The like results for `CC(C)(c1cc(NC(=O)Cc2ccc(-c3cnc4[nH]nc(OC5CCNCC5)c4c3)cc2)no1)C(F)(F)F` [Example 48, 2-(4-(3-(piperidin-4-yloxy)-1H-pyrazolo[3,4-b]pyridin-5-yl)phenyl)-N-(5-(1,1,1-trifluoro-2-methylpropan-2-yl)isoxazol-3-yl)acetamide formate salt] were, in that order, 10 to 20 nM and 10 to 20 nM.
The like results for `CN(C)C(=O)c1cc2cc(-c3ccc(CC(=O)Nc4cc(C(C)(C)C)on4)cc3)cnc2[nH]1` [Example 49, 5-(4-(2-((5-(tert-butyl)isoxazol-3-yl)amino)-2-oxoethyl)phenyl)-N,N-dimethyl-1H-pyrrolo[2,3-b]pyridine-2-carboxamide] were, in that order, under 10 nM and under 10 nM.
Consider `CC(C)(C)c1cc(NC(=O)Cc2ccc(-c3cnc4[nH]c(CO)cc4c3)cc2)no1` [Example 50, N-(5-(tert-butyl)isoxazol-3-yl)-2-(4-(2-(hydroxymethyl)-1H-pyrrolo[2,3-b]pyridin-5-yl)phenyl)acetamide], for which the IC50 in experiment [1] and in experiment [2] was under 10 nM in each case.
Turning to `Cc1n[nH]c2ncc(-c3ccc(CC(=O)Nc4cc(C(C)(C)C)on4)c(F)c3)cc12` [Example 51, N-(5-(tert-butyl)isoxazol-3-yl)-2-(2-fluoro-4-(3-methyl-1H-pyrazolo[3,4-b]pyridin-5-yl)phenyl)acetamide], the IC50 in experiment [1] and in experiment [2] was under 10 nM each time.
For the molecule `CN(C)Cc1cc2cc(-c3ccc(CC(=O)Nc4cc(C(C)(C)C)on4)cc3)cnc2[nH]1` [Example 52, N-(5-(tert-butyl)isoxazol-3-yl)-2-(4-(2-((dimethylamino)methyl)-1H-pyrrolo[2,3-b]pyridin-5-yl)phenyl)acetamide], the figures for the IC50 in experiment [1] and in experiment [2] were over 50 nM and 20 to 50 nM, respectively.
The like results for `COc1n[nH]c2ncc(-c3ccc(CC(=O)Nc4cc(C5(C(F)(F)F)CC5)on4)c(F)c3)cc12` [Example 53, 2-(2-fluoro-4-(3-methoxy-1H-pyrazolo[3,4-b]pyridin-5-yl)phenyl)-N-(5-(1-(trifluoromethyl)cyclopropyl)isoxazol-3-yl)acetamide] were, in that order, under 10 nM and under 10 nM.
In the same order, the values of `CNCc1c[nH]c2ncc(-c3ccc(CC(=O)Nc4cc(C(C)(C)C)on4)cc3)cc12` [Example 54, N-(5-(tert-butyl)isoxazol-3-yl)-2-(4-(3-((methylamino)methyl)-1H-pyrrolo[2,3-b]pyridin-5-yl)phenyl)acetamide] are over 50 nM and over 50 nM.
In the same order, the values of `CC(C)(C)c1cc(NC(=O)Cc2ccc(-c3cnc4[nH]nc(CO)c4c3)cc2F)no1` [Example 55, N-(5-(tert-butyl)isoxazol-3-yl)-2-(2-fluoro-4-(3-(hydroxymethyl)-1H-pyrazolo[3,4-b]pyridin-5-yl)phenyl)acetamide] are under 10 nM and under 10 nM.
`O=C(Cc1ccc(-c2cnc3[nH]ncc3c2)cc1F)Nc1cc(C2(C(F)(F)F)CCC2)on1` [Example 56, 2-(2-Fluoro-4-(1H-pyrazolo[3,4-b]pyridin-5-yl)phenyl)-N-(5-(1-(trifluoromethyl)cyclobutyl)isoxazol-3-yl)acetamide]: the IC50 in experiment [1] and in experiment [2] was under 10 nM in each case.
For `CNCc1n[nH]c2ncc(-c3ccc(CC(=O)Nc4cc(C(C)(C)C)on4)c(F)c3)cc12` [Example 57, N-(5-(tert-butyl)isoxazol-3-yl)-2-(2-fluoro-4-(3-((methylamino)methyl)-1H-pyrazolo[3,4-b]pyridin-5-yl)phenyl)acetamide], the IC50 in experiment [1] is over 50 nM; in experiment [2], 20 to 50 nM.
The like results for `CN(C)Cc1n[nH]c2ncc(-c3ccc(CC(=O)Nc4cc(C(C)(C)C)on4)c(F)c3)cc12` [Example 58, N-(5-(tert-butyl)isoxazol-3-yl)-2-(4-(3-((dimethylamino)methyl)-1H-pyrazolo[3,4-b]pyridin-5-yl)-2-fluorophenyl)acetamide] were, in that order, 20 to 50 nM and 10 to 20 nM.
The like results for `CN(C)Cc1c[nH]c2ncc(-c3ccc(CC(=O)Nc4cc(C(C)(C)C)on4)cc3)cc12` [Example 59, N-(5-(tert-butyl)isoxazol-3-yl)-2-(4-(3-((dimethylamino)methyl)-1H-pyrrolo[2,3-b]pyridin-5-yl)phenyl)acetamide formate salt] were, in that order, over 50 nM and over 50 nM.
On to `CC(C)(C)c1cc(NC(=O)Cc2ccc(-c3cnc4[nH]cc(CO)c4c3)cc2)no1` [Example 60, N-(5-(tert-butyl)isoxazol-3-yl)-2-(4-(3-(hydroxymethyl)-1H-pyrrolo[2,3-b]pyridin-5-yl)phenyl)acetamide], for which the IC50 in experiment [1] and in experiment [2] was under 10 nM in each case.
As for `CN(C)c1n[nH]c2ncc(-c3ccc(CC(=O)Nc4cc(C5(C(F)(F)F)CC5)on4)c(F)c3)cc12` [Example 61, 2-(4-(3-(dimethylamino)-1H-pyrazolo[3,4-b]pyridin-5-yl)-2-fluorophenyl)-N-(5-(1-(trifluoromethyl)cyclopropyl)isoxazol-3-yl)acetamide], the IC50 in experiment [1] and in experiment [2] was under 10 nM each time.
Turning to `CC(C)(C)c1cc(NC(=O)Cc2ccc(-c3cnc4[nH]ccc4c3)cc2)on1` [Example 71, 2-(4-(1H-pyrrolo[2,3-b]pyridin-5-yl)phenyl)-N-(3-(tert-butyl)isoxazol-5-yl)acetamide], the IC50 in experiment [1] and in experiment [2] was under 10 nM throughout.
For `COc1cc2ncc(-c3ccc(CC(=O)Nc4cc(C5(C(F)(F)F)CC5)no4)cc3)nc2cc1OC` [Example 72, 2-(4-(6,7-dimethoxyquinoxalin-2-yl)phenyl)-N-(3-(1-(trifluoromethyl)cyclopropyl)isoxazol-5-yl)acetamide], the IC50 in experiment [1] and in experiment [2] was under 10 nM throughout.
`COc1cc2ncc(-c3ccc(CC(=O)Nc4cc(C(C)(C)C)no4)cc3)nc2cc1OC` [Example 73, N-(3-(tert-butyl)isoxazol-5-yl)-2-(4-(6,7-dimethoxyquinoxalin-2-yl)phenyl)acetamide]: the IC50 was 10 to 20 nM in experiment [1] and under 10 nM in experiment [2].
As for `CC(=O)OCCOc1cc2ncc(-c3ccc(CC(=O)Nc4cc(C5(C(F)(F)F)CC5)on4)c(F)c3)nc2cc1OCCOC(C)=O` [Example 74, ((2-(3-fluoro-4-(2-oxo-2-((5-(1-(trifluoromethyl)cyclopropyl)isoxazol-3-yl)amino)ethyl)phenyl)quinoxaline-6,7-diyl)bis(oxy))bis(ethane-2,1-diyl) diacetate], the IC50 in experiment [1] and in experiment [2] was under 10 nM throughout.
Take `O=C(Cc1ccc(-c2cnc3cc(OCCO)c(OCCO)cc3n2)cc1F)Nc1cc(C2(C(F)(F)F)CC2)on1` [Example 75, 2-(4-(6,7-bis(2-hydroxyethoxy)quinoxalin-2-yl)-2-fluorophenyl)-N-(5-(1-(trifluoromethyl)cyclopropyl)isoxazol-3-yl)acetamide]: the IC50 in experiment [1] and in experiment [2] was under 10 nM in each case.
Regarding `O=C(Cc1ccc(-c2cnc3cc4c(cc3n2)OCCO4)cc1F)Nc1cc(C2(C(F)(F)F)CC2)on1` [Example 76, 2-(4-(2,3-dihydro-[1,4]dioxino[2,3-g]quinoxalin-7-yl)-2-fluorophenyl)-N-(5-(1-(trifluoromethyl)cyclopropyl)isoxazol-3-yl)acetamide], the IC50 in experiment [1] lay within 20 to 50 nM; in experiment [2], 10 to 20 nM.
In the same order, the values of `COc1cc2nc(-c3ccc(CC(=O)Nc4cc(C5(C(F)(F)F)CC5)on4)c(F)c3)cnc2cc1O` [Example 78, 2-(2-fluoro-4-(6-hydroxy-7-methoxyquinoxalin-2-yl)phenyl)-N-(5-(1-(trifluoromethyl)cyclopropyl)isoxazol-3-yl)acetamide] are under 10 nM and under 10 nM.
In the same order, the values of `CCOc1cc2ncc(-c3ccc(CC(=O)Nc4cc(C5(C(F)(F)F)CC5)on4)c(F)c3)cc2cc1OC` [Example 86, 2-(4-(7-ethoxy-6-methoxyquinolin-3-yl)-2-fluorophenyl)-N-(5-(1-(trifluoromethyl)cyclopropyl)isoxazol-3-yl)acetamide] are under 10 nM and under 10 nM.
On to `O=C(Cc1ccc(-c2cnc3[nH]c(C(=O)O)cc3c2)cc1F)Nc1cc(C2(C(F)(F)F)CC2)on1` [Example 106, 5-[3-fluoro-4-[2-oxo-2-[[5-[1-(trifluoromethyl)cyclo-propyl]isoxazol-3-yl]amino]ethyl]phenyl]-1H-pyrrolo[2,3-b]pyridine-2-carboxylic acid], for which the IC50 in experiment [1] and in experiment [2] was over 50 nM in each case.
